# Measured values reported in ChEMBL document CHEMBL3627626, “6-Substituted Pyrrolo[2,3-d]pyrimidine Thienoyl Regioisomers as Targeted Antifolates for Folate Receptor α and the Proton-Coupled Folate Transporter in Human Tumors” (J Med Chem, 2015).
# Tests used:
# R2 [1] = assay: Cytotoxicity against PCFT-null Chinese hamster R2 cells assessed as cell growth inhibition after 96 hrs by CellTiter-Blue assay; assay type: cell-based, Cricetulus griseus; conditions: R2, 96 h
# R2 [2] = assay: Cytotoxicity against Chinese hamster R2 cells transfected with empty PCDNA3 assessed as cell growth inhibition after 96 hrs by CellTiter-Blue assay; assay type: cell-based, Cricetulus griseus
compound,measurement,setting,value
Nc1nc(N)c2c(CCCc3csc(C(=O)N[C@@H](CCC(=O)O)C(=O)O)c3)coc2n1,IC50,R2 [1],> 1000 nM
same,IC50,R2 [2],> 1000 nM
